What was measured:
[1] = rat, in vivo, 25 mg/kg
Experimental: The experimental results described below were obtained on the basis of a study carried out in healthy human beings and in healthy Wistar rats weighing approximately 250 grams.
An acclimation period was observed before beginning the experiments.
The rats received an administration per os of a volume of 5 ml of a solution of active product.
With regard to taking the blood samples from the rats and from the human beings, the blood was collected in tubes internally coated with EDTA and was then centrifuged at 3000 rpm (revolutions per minute) at ambient temperature for 45 min, and then for 15 min at a temperature of 4° C. The plasma was then collected and stored at −70° C. before analysis. […]
(§1) The free (+)-catechin was extracted from the plasma with a solution of phosphoric acid, EDTA and ascorbic acid and was then purified by SPE (solid phase extraction); in particular, it is an Oasis™ HLB extraction which is analyzed by LC-MS/MS. The quantification was carried out according to a standard calibration procedure with (+/−)-catechin-2,3,4-^13C3 as internal standard (SI).
The procedure is identical with regard to the extraction and the quantification of free quercetin or ECGC in the blood. […]

[2] = in vivo, po
Experimental: With regard to taking the blood samples from the rats and from the human beings, the blood was collected in tubes internally coated with EDTA and was then centrifuged at 3000 rpm (revolutions per minute) at ambient temperature for 45 min, and then for 15 min at a temperature of 4° C. The plasma was then collected and stored at −70° C. before analysis.
The analytical technique (LC-MS/MS for Liquid Chromatography coupled to tandem Mass Spectrometry) for measuring the active substance in the blood was based on the method described by Mata-Bilbao et al., published in 2007 in the Journal of Agricultural and Food Chemistry, volume 55, page 8857.
as §1
This complex salt is administered to a group A of 5 healthy volunteers.
This ct parameter makes it possible to calculate, from the data of table 1, the bioavailability of the (+)-catechin expressed in ng h/ml.

- ct value estimated from the curve of ct as a function of the (+)-catechin:lysine molar equivalence ratio (FIG. 5) [1]: 127 000 ng min/ml
- ct, value reported on the curve in FIG. 5 [1]: 127 k ng min/ml
- T (max) [2]: 30 min
- c (max) [2]: 525 ng/mL
- increase in speed of passage into the blood, T (max), compared with pure (+)-catechin [2]: +166%
Substance: monomeric (+)-catechin hydrochlorolysinate [[C:Lys:HCl/1:1:1]]

Reference: US9844595B2, “Composition comprising a complex of (+)-catechin and amino acid for the treatment and prevention of cancer” (VALORE, priority 2013, dated 2017)
